Data reported in patent publication US7462486B2, “Methods of selecting T cell receptor V peptides for therapeutic use” (Oregon Health & Science University, priority 2000, dated 2008).

B1: Avonex: IFN-β-1a, standard MS therapy (protein, UniProt P01574 22-187, looked up)
Interferon beta: MSYNLLGFLQRSSNFQCQKLLWQLNGRLEYCLKDRMNFDIPEEIKQLQQFQKEDAALTIYEMLQNIFAIFRQDSSSTGWNETIVENLLANVYHQINHLKTVLEEKLEKEDFTRGKLMSSLHLKRYYGRILHYLKAKEYSHCAWTIVRVEILRNFYFINRLTGYLRN

Tests used:
[1] = system: CD4+CD25− T cells; experiment: Treg assay of antigen-specific CD4+CD25+ T cell lines; type: cell-based, human; conditions: added to the Treg assay
Protocol: (§1) Treg assay: CD4+CD25+ and CD4+CD25− T cells were separated from 100 ml blood and each subpopulation was stimulated with anti-CD3+ anti-CD28 mAbs alone or in mixed cultures containing a fixed number (10,000) of CD4+CD25− responder cells and varying numbers of CD4+CD25+ T cells to give 0%, 20%, 33%, 50%, 67% and 100% in triplicate cultures (see FIG. 5). After 3 days, the cells were harvested and assessed for proliferation and cytokine production (IFN-γ and IL-10) in culture supernatants by ELISA. […]
A standard procedure was recently developed for assessing inhibitory activity of CD4+CD25+ Treg cells in vitro. […] These cell populations are cultured alone or are mixed at varying ratios using a constant number of CD4+CD25− responder T cells, and stimulated with plate-bound anti-CD3+anti-CD28 mAbs for 3 days, and are then assessed for proliferation responses using ^3H-Tdy uptake. […]
Suppression assays were performed in 96-well round bottom plates (Becton Dickinson, Franklin Lakes, N.J.) in a final volume of 200 μl/well of 1% type AB human Serum complete media (Biowhittaker, Walkersville, Md.). […] The cells were then harvested on glass fiber filters and assessed for uptake of the labeled thymidine by liquid scintillation. […]
The percent suppression was plotted versus increasing percentage of suppressor:indicator cells and a regression line was calculated. […]

[2] = system: CD4+CD25− indicator cells; experiment: Treg activity of CD4+CD25+ T cells from PBMC of treated MS patients; type: in vivo, human; conditions: 1:2 ratio indicator:suppressor cells, FIG. 9
Protocol: as §1
Suppression assays were performed in 96-well round bottom plates (Becton Dickinson, Franklin Lakes, N.J.) in a final volume of 200 μl/well of 1% type AB human Serum complete media (Biowhittaker, Walkersville, Md.). […] The cells were then harvested on glass fiber filters and assessed for uptake of the labeled thymidine by liquid scintillation. Percent suppression was determined at each mixed cell ratio compared to responses of CD4+CD25+ (suppressor cells) and CD4+CD25− T cells (indicator T cells) alone as follows: Mean cpm (indicator cells)−mean cpm (mixed cell culture) mean cpm (indicator cells)−mean cpm (suppressor cells)
The percent suppression was plotted versus increasing percentage of suppressor:indicator cells and a regression line was calculated. I50 values were determined as the ratio of suppressor:indicator cells that produced 50% suppression. […]

Row | Molecule | reversal of Treg activity of TCR-reactive T cell lines by addition [1] | suppressive Treg activity of CD4+CD25+ T cells from treated MS patients [2]
1 | IL-2: interleukin-2 added to the Treg assay | reversed completely | 
2 | B1 |  | moderately suppressive
